Laboratory results: patent US9297810B2, “CD40L-binding agent based platelet aggregation assays” (BIOGEN IDEC MA INC., priority 2005, dated 2016)

Target: T1, CD40L on the platelet surface (Homo sapiens, UniProt P29965)
T1 construct: endogenous in cells
T1 sequence (P29965 1-261): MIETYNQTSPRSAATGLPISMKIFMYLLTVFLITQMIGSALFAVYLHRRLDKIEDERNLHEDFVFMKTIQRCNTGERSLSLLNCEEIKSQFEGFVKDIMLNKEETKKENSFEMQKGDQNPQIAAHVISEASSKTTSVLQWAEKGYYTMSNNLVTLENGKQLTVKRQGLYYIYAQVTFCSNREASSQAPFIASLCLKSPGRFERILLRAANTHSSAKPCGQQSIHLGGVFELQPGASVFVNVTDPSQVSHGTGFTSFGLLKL
Assay: Binding of biotin-conjugated anti-CD40L antibody to platelets (western blotting with HRP-streptavidin)
Conditions: platelets with or without 10 μM ADP, 1-60 minutes
Description: Platelets were incubated with a biotin-conjugated anti-CD40L antibody to determine whether CD40L is present on the surface of platelets. PRP was incubated with or without 10 μM ADP for 1, 10, 20, 40, or 60 minutes and then incubated with biotin-conjugated anti-CD40L antibody. Unbound antibody was removed from the platelets by washing with PBS. The amount of anti-CD40L antibody bound to the platelets was determined by western blotting using HRP-conjugated streptavidin. The specific binding of biotin-conjugated anti-CD40L antibody to the platelets was verified by preincubating the antibody with recombinant sCD40L.
Expression of CD40L was readily detected in lysates prepared from human platelets (data not shown). To determine whether CD40L is expressed on resting and/or activated platelets, platelets were incubated with biotin-conjugated anti-CD40L antibody and the presence of surface CD40L was determined by quantifying the bound biotinylated anti-CD40L antibody. Surface expression of CD40L was evaluated after 1, 10, 20, 40, and 60 minutes of incubation with or without 10 μM ADP. Surface expression of CD40L was detectable on ADP-activated platelets as early as one minute after activation and increased over time (FIG. 2). […] This phenomenon is likely attributable to the basal level of platelet activation under our experimental conditions.

BG9588: Research-grade anti-CD40L antibody prepared at Biogen; table column BG9588 corresponds to it
binding to CD40L on the platelet surface: recognizes the CD40L molecules present on the platelet surface
